# “And” between values parts separate entries of the source, which are not always exact repeats. Identical values can stand only once. The list shows a part of the results, in another mix than the full data. Some results for these compounds are left out of this collection, so the calls shown say nothing about other tests. Inconclusive results are not listed. The source made the active and inactive calls. The call rests on the fitted dose curve; in most records, active means well fitted inhibition curve with a large enough effect; inconclusive means small, poorly fitted or top-dose-only effect; inactive means no such curve, though single readings can be large or run the other way.
# By UniProt entry, the sequences of proteins in these tests, tags left out.
# UniProt O75164, whole entry: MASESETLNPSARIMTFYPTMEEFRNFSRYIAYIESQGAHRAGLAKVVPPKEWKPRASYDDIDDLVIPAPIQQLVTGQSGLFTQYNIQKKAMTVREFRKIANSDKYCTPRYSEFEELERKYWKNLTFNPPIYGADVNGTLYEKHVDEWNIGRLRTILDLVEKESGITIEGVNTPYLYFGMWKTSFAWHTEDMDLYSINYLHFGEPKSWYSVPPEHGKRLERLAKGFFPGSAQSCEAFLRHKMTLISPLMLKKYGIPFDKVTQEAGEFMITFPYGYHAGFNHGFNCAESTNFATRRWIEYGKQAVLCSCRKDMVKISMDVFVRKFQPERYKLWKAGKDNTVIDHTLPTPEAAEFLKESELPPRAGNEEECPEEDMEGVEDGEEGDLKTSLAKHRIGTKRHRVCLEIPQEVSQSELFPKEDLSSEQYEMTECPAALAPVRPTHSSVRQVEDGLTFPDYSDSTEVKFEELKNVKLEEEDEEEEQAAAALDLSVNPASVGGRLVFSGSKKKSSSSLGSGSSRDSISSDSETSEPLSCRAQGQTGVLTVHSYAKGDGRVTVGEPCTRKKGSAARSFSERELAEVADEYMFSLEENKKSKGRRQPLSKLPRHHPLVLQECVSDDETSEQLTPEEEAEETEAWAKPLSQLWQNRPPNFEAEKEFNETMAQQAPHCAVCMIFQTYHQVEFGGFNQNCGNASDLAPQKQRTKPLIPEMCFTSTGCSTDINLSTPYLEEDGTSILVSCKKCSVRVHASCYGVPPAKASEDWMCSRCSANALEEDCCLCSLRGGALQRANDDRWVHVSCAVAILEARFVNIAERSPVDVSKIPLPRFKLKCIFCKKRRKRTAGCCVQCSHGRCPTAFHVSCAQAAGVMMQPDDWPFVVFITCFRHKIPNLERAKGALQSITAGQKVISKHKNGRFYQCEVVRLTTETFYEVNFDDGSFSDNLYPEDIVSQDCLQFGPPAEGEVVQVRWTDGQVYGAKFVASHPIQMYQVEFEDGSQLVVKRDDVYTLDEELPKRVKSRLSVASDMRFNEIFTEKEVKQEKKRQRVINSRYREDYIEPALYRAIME
# Target: Lysine-specific demethylase 4A (Homo sapiens) (UniProt O75164)
# Assay: qHTS Assay for Inhibitors of JMJD2A-Tudor Domain; further: nearly all actives have a fitted effect of over 50% in size
# Conditions: AlphaScreen JMJD2A-Tudor / H3K4me3 peptide binding; at 114 µM (top of the series) unless noted
# On the % scale 0 is the no-effect control and ±100 the full control effect.
row,SMILES,"activity change, negative = inhibition"
1,O=C(OC1CN2CCC1CC2)C(CO)(c1ccccc1)c1ccccc1 (stereo not given),inactive: -10.1%
2,COc1cccc(C(=O)NCC2(N3CCOCC3)CCCCC2)c1,inactive: -10.6%
3,CC(C)COc1ccc(C(=O)NCC2(N(C)C)CCCCC2)cc1,inactive: -7.28%
4,COc1ccc(Br)c(C(=O)NCC2(N3CCCCC3)CCCCC2)c1,inactive: -24.2%
5,Cc1cccc(C(=O)NCC2(N(C)C)CCCCC2)c1,inactive: -16.9%
6,COc1cc(C(=O)NCC2(N(C)C)CCCCC2)cc(OC)c1OC,inactive: 2.98%
7,CN(C)c1cccc(C(=O)NCC2(N(C)C)CCCCC2)c1,inactive: -4.12%
8,O=C(OCCN1CCCC1)C(O)(c1ccccc1)c1ccccc1,inactive: -14.4%
9,CC(C)Oc1ccc(C(=O)NCC2(N(C)C)CCCCC2)cc1,inactive: -13.6% and inactive: -8.81%
10,CN(C)C1(CNC(=O)c2ccc(Br)cc2)CCCCC1,inactive: -7.04%
11,COc1cc(C(=O)NCC2(N(C)C)CCCCC2)c([N+](=O)[O-])cc1OC,inactive: -12.4%
12,COc1ccc(C(=O)NCC2(N(C)C)CCCCC2)cc1Cl,inactive: -8.61%
13,COc1ccc(Cl)cc1C(=O)NCC1(N(C)C)CCCCC1,inactive: -14.9%
14,COc1cccc(C(=O)NCC2(N3CCCCC3)CCCCC2)c1,inactive: -12.5%
15,O=C(NCC1(N2CCCCC2)CCCCC1)c1cccc(Cl)c1,inactive: -14.5%
16,CN(C)c1ccc(C(=O)NCC2(N(C)C)CCCCC2)cc1,inactive: -12.9%
17,CN(C)C1CCCC1OC(=O)C(O)(c1ccccc1)c1ccccc1 (stereo not given),inactive: -29.4% [at 57.1 µM]
18,Cc1ccccc1C(=O)NCC1(N2CCCCC2)CCCCC1,inactive: -16.3%

row,SMILES,"activity change, negative = inhibition"
1,CN(C)C1(CNC(=O)c2ccccc2[N+](=O)[O-])CCCCC1,inactive: -4.3%
2,CCCCOc1ccccc1C(=O)NCC1(N(C)C)CCCCC1,inactive: -13.2%
3,O=C(NCC1(N2CCCCC2)CCCCC1)c1cc(F)c(F)cc1Cl,inactive: -12.6%
4,C=CCN1CCN(CCOC(=O)C(O)(c2ccccc2)c2ccccc2)CC1,inactive: -13%
5,O=C(NCC1(N2CCCCC2)CCCCC1)c1cccc(Br)c1,inactive: -15.1%
6,CCN1CCCC(OC(=O)C2(O)c3ccccc3C=Cc3ccccc32)C1 (stereo not given),inactive: 16%
7,Cc1cc(C(=O)NCC2(N3CCCCC3)CCCCC2)ccc1[N+](=O)[O-],inactive: -11%
8,CCOc1cccc(C(=O)NCC2(N(C)C)CCCCC2)c1,inactive: -1.99%
9,COc1ccc(C(=O)NCC2(N(C)C)CCCCC2)cc1,inactive: 7.12%
10,O=C(NCC1(N2CCCCC2)CCCCC1)c1cc([N+](=O)[O-])ccc1Cl,inactive: -9.94%
11,CN1[C@@H]2CC[C@H]1CC(OC(=O)C(O)(c1ccccc1)c1ccccc1)C2 (stereo not given in full),inactive: -11.7%
12,CC(C)N1C(=O)CC2(CCN(CCOC(=O)C(O)(c3ccccc3)c3ccccc3)CC2)C1=O,inactive: 4.94%
13,COc1cc(SC)ccc1C(=O)NCC1(N(C)C)CCCCC1,inactive: -12.7%
14,CN(C)C1(CNC(=O)c2cccc(Cl)c2)CCCCC1,inactive: -4.3%
15,CCN(CC)CC(C)C(C)OC(=O)C(O)(c1ccccc1)c1ccccc1 (stereo not given),inactive: -15.2%
16,CN(C)C1(CNC(=O)c2ccccc2F)CCCCC1,inactive: -9.93%
17,Cc1ccc(C(=O)NCC2(N3CCCCC3)CCCCC2)cc1,inactive: -9.25%

# Reference: PubChem BioAssay AID504339 (National Center for Advancing Translational Sciences (NCATS), 2011)
